Measured values as given in PubChem BioAssay AID624038 (The Scripps Research Institute Molecular Screening Center, 2012).
Only a part is listed here, and it is no random draw. Active and inactive are the calls of the source.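 Rule for the calls: active = activation above the run cutoff, the mean activation of all test compounds plus 3 SD (cut at about 18% in these data); inactive = the rest.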

By UniProt entry, the sequences of proteins in these tests, tags left out.
UniProt P08912, whole entry, looked up: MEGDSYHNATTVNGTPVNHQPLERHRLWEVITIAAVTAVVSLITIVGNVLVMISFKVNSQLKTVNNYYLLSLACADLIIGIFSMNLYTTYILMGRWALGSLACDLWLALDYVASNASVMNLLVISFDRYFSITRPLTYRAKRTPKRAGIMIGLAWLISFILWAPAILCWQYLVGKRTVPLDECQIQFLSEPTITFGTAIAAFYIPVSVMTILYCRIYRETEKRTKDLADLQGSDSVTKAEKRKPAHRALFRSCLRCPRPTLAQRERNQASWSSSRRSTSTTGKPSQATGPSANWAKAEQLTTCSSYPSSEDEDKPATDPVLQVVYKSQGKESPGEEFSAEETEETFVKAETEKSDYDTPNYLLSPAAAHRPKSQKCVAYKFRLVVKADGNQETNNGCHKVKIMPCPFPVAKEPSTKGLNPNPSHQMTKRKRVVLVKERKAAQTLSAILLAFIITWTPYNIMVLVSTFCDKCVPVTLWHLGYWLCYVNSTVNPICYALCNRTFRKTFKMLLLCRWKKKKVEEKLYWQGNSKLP

These compounds were tested against Muscarinic acetylcholine receptor M5 (Homo sapiens) (UniProt P08912) (assay: CHRM5 PAMs potentiating acetylcholine calcium signal – CHO-K1 cells, Fluo-8 calcium fluorescence, primary screen (AID 624038)). Settings: CHO-K1 hM5, Fluo-8 calcium, ACh EC20 PAM; at 3 µM; active compounds read high; 0% = ACh EC20, 100% = ACh EC100.

Row | SMILES | activation
1 | COC(=O)c1cc2c(s1)N=C(c1ccccc1)N(C)P2(=O)N1CCOCC1 (configuration not stated) | inactive: 1.91%
2 | CC(=O)NC(SC(=S)N(CC(C)C)CC(C)C)C(Cl)(Cl)Cl (configuration not stated) | inactive: 1.36%
3 | Cc1ccc(OP(=O)(Nc2ccccn2)Oc2ccc(C)cc2)cc1 | inactive: -3.42%
4 | CC1C(=O)OC2CCN3CC4OC4(COC(=O)C(C)(O)C1(C)O)C23 (configuration not stated) | inactive: 7.8%
5 | O=P1(N(CCCl)CCCl)OCCC2CCCCN21 (configuration not stated) | inactive: 0.49%
6 | c1ccc(-c2nn[nH]n2)c(-c2nn[nH]n2)c1 | inactive: 11.2%
7 | Cc1ccc(NP(=O)(Oc2cccc(C)c2)Oc2cccc(C)c2)nc1 | inactive: 9.35%
8 | C=C1C(=O)OC2CCN3CC=C(COC(=O)C(C)(O)C4(CO4)C1C)C23 (configuration not stated) | inactive: -1.89%
9 | O=C(NC1CCS(=O)(=O)C1)NP(=S)(Oc1ccccc1)Oc1ccccc1 (configuration not stated) | inactive: 0.4%
10 | CCNC(=S)/N=C(\N)N[N+](=O)[O-] | inactive: 0.55%
11 | Nc1cccc2ccc([As](=O)(O)O)cc12 | inactive: -0.28%
12 | CCN(N=Nc1nonc1N)c1nonc1N | inactive: -2.02%
13 | CCOP(=O)(Nc1ccccc1)OCC | inactive: 8.68%
14 | Cc1cc(SC(NC(=O)c2ccc(F)cc2)C(Cl)(Cl)Cl)ncn1 (configuration not stated) | inactive: -3.64%
15 | CN(C(=O)Cc1ccc(Cl)c(Cl)c1)[C@H]1CCCC[C@@H]1N1CCCC1 | inactive: -5.33%
16 | Cc1ccc(NP(=O)(Oc2ccccc2F)Oc2ccccc2F)nc1 | inactive: -17.1%
17 | CN(C)P(=O)(N(C)C)n1c(Nc2ccccc2)nnc1-c1ccccc1 | inactive: 0.1%
18 | O=P(Nc1nc2ccc(Cl)cc2s1)(c1ccccc1)c1ccccc1 | inactive: -19.4%
19 | O=C(O)c1ccccc1[As](=O)(O)O | inactive: 4.13%

Row | SMILES | activation
20 | CC(=O)Nc1ccc([As](=O)(O)O)cc1 | inactive: -3.16%
21 | CC(=O)O[C@]1(C)C(=O)OC/C2=C/CN(C)CCC(OC(=O)[C@@](O)(C(C)O)C[C@H]1C)C2=O (some centres not stated) | inactive: -2.24%
22 | CCCC1OP(N)(=O)OCC1CC (configuration not stated) | inactive: 1.21%
23 | O=[N+]([O-])C1C(O)C(O)C([N+](=O)[O-])C(O)C1O (configuration not stated) | inactive: -2.94%
24 | Oc1ccccc1CNc1ccccn1 | inactive: 3.78%
25 | O=C(NC(Sc1ccncn1)C(Cl)(Cl)Cl)c1ccccc1 (configuration not stated) | inactive: -1.75%
26 | CC(C)CC(=O)NC(Sc1ccc(Cl)cc1)C(Cl)(Cl)Cl (configuration not stated) | inactive: -2.45%
27 | Nc1cc(N)c2nonc2c1[N+](=O)[O-] | inactive: -10.6%
28 | Clc1ccc(Cl)c(NC2=NCC(CBr)S2)c1 (configuration not stated) | inactive: -1.49%
29 | CN1CCCC(OC(=O)C(c2ccccc2)c2ccccc2)C1 (configuration not stated) | inactive: -41.4%
30 | CC(C)[C@H]1C(=O)O[C@@H]2CCN3CC=C(COC(=O)[C@](C)(O)[C@]1(C)O)[C@H]23 | inactive: -3.95%
31 | COc1ccccc1OP(=O)(Nc1ccc(C)cn1)Oc1ccccc1OC | inactive: -6.51%
32 | Cc1ccc(OP(=O)(Nc2nccs2)Oc2ccc(C)cc2)cc1 | inactive: 4.69%
33 | CN(C(=O)Cc1ccc(Cl)c(Cl)c1)[C@H]1CCCC[C@H]1N1CCCC1 | inactive: -8.72%
34 | Cc1ccc(N/C(=N/P(=O)(N2CCOCC2)N2CCOCC2)N2CCOCC2)cc1 | inactive: -5.01%
35 | NC(=O)c1cc([N+](=O)[O-])cc([N+](=O)[O-])c1N | inactive: 11%
36 | c1cc(-c2nn[nH]n2)ccc1-c1nn[nH]n1 | inactive: 2.52%
37 | CC1CCN(C(=O)Oc2c(Cl)cc(Cl)c3cccnc23)CC1 | inactive: -0.84%
38 | CC(C)=N/N=C(\N)N[N+](=O)[O-] | inactive: 6.06%

Row | SMILES | activation
39 | CC(C)c1nc(Nc2ccccc2)n(P(=O)(N(C)C)N(C)C)n1 | inactive: -1.26%
40 | CN(C)C(=O)OCCc1n(C)cc[n+]1C | inactive: -6.77%
41 | CCN(/C(=N/P(=O)(N1CCOCC1)N1CCOCC1)N1CCOCC1)c1ccc(OC)cc1 | inactive: 0.31%
42 | Nc1ccc([As](=O)(O)c2ccc(N)cc2)cc1 | inactive: 2.42%
43 | C[N+]1=C2C=CC=CC=C2SC12C([N+](=O)[O-])=CC([N+](=O)[O-])=C[C-]2[N+](=O)[O-] (configuration not stated) | inactive: -6.71%
44 | Cc1ccc(NP(=O)(Oc2ccccc2)Oc2ccccc2)nc1 | inactive: 7.29%
45 | O=[N+]([O-])c1cc([N+](=O)[O-])c(CCNc2ccccc2)c([N+](=O)[O-])c1 | inactive: 0.09%
46 | CCc1nc2c(n1)c1c(non1O)c1c2no[n+]1[O-] | inactive: -6.54%
47 | CC(=O)N1C2C3N(C(C)=O)C1C1N(C(C)=O)C(C(N1C(C)=O)N3C(C)=O)N2C(C)=O | inactive: 5.41%
48 | O=[N+]([O-])c1cccc2n[nH]nc12 | inactive: -8.32%
49 | COc1ccc(C2=NCC(CBr)S2)cc1 (configuration not stated) | inactive: 1.73%
50 | C/C=C1/C[C@@H](C)[C@](O)(CO)C(=O)OCC2=CCN3CC[C@@H](OC1=O)[C@@H]23 | inactive: 4.77%
51 | O=C(O)CNc1ccc([As](=O)(O)O)cc1 | inactive: -4.34%
52 | O=[N+]([O-])c1cccc(NC2=NCC(CBr)S2)c1 (configuration not stated) | inactive: -3.33%
53 | COC(=O)C1(C)COP(=O)(Nc2ccccc2)OC1 (configuration not stated) | inactive: -0.26%
54 | O=[N+]([O-])c1ncn(CCn2ncnc2[N+](=O)[O-])n1 | inactive: -0.81%
55 | CC(C)(C)C(=O)NC(Sc1ccncn1)C(Cl)(Cl)Cl (configuration not stated) | inactive: -8.35%
56 | O=C(Nc1cc([As](=O)(O)O)ccc1O)c1ccccc1 | inactive: 5.11%
57 | O=P1(N(CCCl)CCCl)OCCCS1 (configuration not stated) | active: 22.2%
